Results: patent US20100055093A1, “PAN-CELL SURFACE RECEPTOR-SPECIFIC THERAPEUTICS” (RECEPTOR BIOLOGIX INC., priority 2006, published 2010)

System: ZR75-1 cells
Assay: Ligand-stimulated cell proliferation, Alamar Blue
Type: cell-based, human
Description: Cell lines MCF7, ZR75-1, ME180 were purchased from ATCC and kept in 10% of FBS DMEM. Cells were seeded at 2000 per well in 96-well plate in 1% FBS supplemented DMEM. After 2-3 hr of seeding, increasing concentrations of candidate HER ECD derivatives were added to the culture in the present of ligands (EGF or HRGβ). Cells were incubated at 37° C. for about 72 hr. Cells relative density were measured by Alamar Blue method. Alamar Blue (Sigma) was prepared in PBS at concentration of 4 uM, added to the microplate at 1/10 volume of culture medium (final concentration 0.4 uM) and plates returned to the incubator. Fluorescence was read at Ex.=530 nm/Em.=590 nm after 2-4 hours at 37° C.

## RB200h: heterodimer: full length HER 1 ECD linked to full length HER 3 ECD via Fc domain (HER1-621/Fc and HER3-621/Fc with His tag)
ZR-75-1 cells stimulated by EGF, at about 1 nM (plateau up to about 600 nM)
  maximal inhibition of proliferation: about 80%
ZR-75-1 cells stimulated by HRG, at about 600 nM
  maximal inhibition of proliferation: about 80%
